Measurements: patent US9155709B1, “Buffered hydroalcoholic povidone iodine composition and method” (priority 2014, dated 2015)

Assay type: physicochemical
Excerpt: Also, while in the preferred embodiment, povidone iodine constitutes about Wt. % 10, preferably 10-11% of the total of the buffered stock and alcoholic solutions prior to their combination, the relative amounts of the two solutions to be combined can be adjusted to provide povidone iodine at from about Wt. % 2-10% of the total of the two solutions prior to their combination. Similarly, adjusting the amount of povidone iodine in the stock solution before combining it with the selected alcoholic solution can produce the same ratios of povidone iodine. Such adjustments would also change the relative amounts of the other ingredients present in the solutions. It may also be possible to exclude or adjust the amount of one or more of the citric acid, sodium phosphate dibasic, sodium hydroxide, glycerin, nonoxynol-9, or MAKON 8 in the stock solution and still produce an effective topical composition. However, the specific ratio of active ingredients is particularly important, specifically with respect to the benzalkonium chloride which should not be blended at a higher concentration due to solubility issues. Based on laboratory experimentation, solutions formed as described in Example 1 below with greater than 0.13% Benzalkonium Chloride cause the ingredient to “crash out” and render the solution useless. […]

Substance: Benzalkonium Chloride
- Benzalkonium Chloride concentration at which the ingredient crashes out of solution: greater than 0.13%
- Benzalkonium chloride concentration at which it loses solubility in solution: above 0.13%
